The numbers were not newly measured in patent US12673014B2, “Inhibitors of glycosphingolipid synthesis and methods of use” (priority 2018, dated 2026), which cites them from elsewhere.

Sequences of proteins named here, by UniProt entry; tags and fusion partners are left off. A change or cut given only in a name is not applied to a line headed by its entry.
UniProt O88693: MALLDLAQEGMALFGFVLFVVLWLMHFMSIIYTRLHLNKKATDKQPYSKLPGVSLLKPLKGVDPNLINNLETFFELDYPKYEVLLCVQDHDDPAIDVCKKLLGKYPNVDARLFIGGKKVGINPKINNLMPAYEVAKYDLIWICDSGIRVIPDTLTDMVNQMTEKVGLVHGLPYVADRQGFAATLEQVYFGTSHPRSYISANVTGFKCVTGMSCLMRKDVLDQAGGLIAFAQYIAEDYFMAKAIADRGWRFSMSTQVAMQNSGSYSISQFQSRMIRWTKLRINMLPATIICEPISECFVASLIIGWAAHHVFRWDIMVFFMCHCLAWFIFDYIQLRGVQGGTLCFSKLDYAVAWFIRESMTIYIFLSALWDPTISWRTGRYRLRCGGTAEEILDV

Structures are written as SMILES.

The target of data set [1] is glucosylceramide synthase (Mus musculus, UniProt O88693). The conditions noted are these: ApoE-/- mice, high fat and cholesterol diet; cited from earlier work.
The test system of data set [2] is lactosylceramide synthase. Conditions: ApoE-/- mice, high fat and cholesterol diet; cited from earlier work.

For the molecule `CCCCCCCCCC(=O)N[C@H](CN1CCOCC1)[C@H](O)c1ccccc1` [D-PDMP, D-threo-1-phenyl-2-decanoylamino-3-morpholino-1-propanol], the “activity of glucosylceramide synthase in liver tissue” value in data set [1] was “dose-dependently decreased”. In addition, the “activity of lactosylceramide synthase in liver tissue” value in data set [2] is “dose-dependently decreased”.
